Values quoted from earlier work, collected in patent US8148404B2, “Modulators of CB1 receptors” (7TM Pharma A/S, priority 2006, dated 2012).

Amino acid sequences for entries named in this document (tags omitted).
UniProt P47746, whole entry: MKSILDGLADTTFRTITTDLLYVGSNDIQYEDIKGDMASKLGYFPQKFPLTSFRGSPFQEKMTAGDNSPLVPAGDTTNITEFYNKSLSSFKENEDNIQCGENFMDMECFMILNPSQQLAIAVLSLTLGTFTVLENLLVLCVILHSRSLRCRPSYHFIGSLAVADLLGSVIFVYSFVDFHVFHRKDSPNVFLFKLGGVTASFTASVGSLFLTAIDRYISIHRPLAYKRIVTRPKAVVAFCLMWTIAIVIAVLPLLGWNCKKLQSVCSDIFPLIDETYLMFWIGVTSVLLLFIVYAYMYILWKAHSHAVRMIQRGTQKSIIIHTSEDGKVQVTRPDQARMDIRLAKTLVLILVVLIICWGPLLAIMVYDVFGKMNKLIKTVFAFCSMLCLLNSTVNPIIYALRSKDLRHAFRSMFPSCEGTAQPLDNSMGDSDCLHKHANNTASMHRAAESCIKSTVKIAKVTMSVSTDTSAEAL

Target: CB1 (cannabinoid receptor 1) (Mus musculus, UniProt P47746)
Conditions: mice, charcoal transit, R-(+)-WIN 55,212 challenge; cited from earlier work

**Q.** For `Cc1c(C(=O)NN2CCCCC2)nn(-c2ccc(Cl)cc2Cl)c1-c1ccc(Cl)cc1` [Rimonabant], which “effect on gastrointestinal transit in the model” value is on record?
**A.** Its value is “clear dose dependent effect”.
